Measured values reported in patent US20240417405A1, “Substituted Spiro Derivatives” (Janssen Pharmaceutica NV, priority 2021, published 2024).

Amino acid sequences for entries named in this document (tags omitted). Chains listed by the source or under a name are the forms on record and can include a tag or linker. Residues count along the entry.
UniProt O00255, 1-610 with tags or gaps T541A: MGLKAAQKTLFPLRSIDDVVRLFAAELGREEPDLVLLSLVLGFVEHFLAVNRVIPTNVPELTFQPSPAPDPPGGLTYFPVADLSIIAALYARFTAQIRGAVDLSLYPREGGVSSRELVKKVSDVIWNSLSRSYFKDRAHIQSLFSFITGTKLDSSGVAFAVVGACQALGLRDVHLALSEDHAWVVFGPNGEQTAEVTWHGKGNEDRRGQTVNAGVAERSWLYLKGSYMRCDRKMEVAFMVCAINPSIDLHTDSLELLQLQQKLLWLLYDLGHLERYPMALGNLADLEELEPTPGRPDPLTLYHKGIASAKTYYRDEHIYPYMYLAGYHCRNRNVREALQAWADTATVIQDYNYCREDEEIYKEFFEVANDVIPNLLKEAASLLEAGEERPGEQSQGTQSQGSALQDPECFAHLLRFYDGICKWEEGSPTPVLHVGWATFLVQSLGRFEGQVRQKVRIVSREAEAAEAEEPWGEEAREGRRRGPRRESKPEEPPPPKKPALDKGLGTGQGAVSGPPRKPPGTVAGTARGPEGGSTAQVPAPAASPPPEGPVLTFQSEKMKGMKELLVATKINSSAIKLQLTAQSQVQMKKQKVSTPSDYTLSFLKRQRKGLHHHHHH

Key:
[1] = biological target: menin/MLL (terbium chelate-labeled menin, FITC-MBM1 peptide) (Homo sapiens, UniProt O00255, T541A); assay: Menin/MLL homogenous time-resolved fluorescence (HTRF) assay; conditions: read-out: HTRF-30 min incubation IC50
Experimental: 1) Menin/MLL Homogenous Time-Resolved Fluorescence (HTRF) Assay
To an untreated, white 384-well microtiter plate was added 40 nL 200× test compound in DMSO and 4 μL 2× terbium chelate-labeled menin (vide infra for preparation) in assay buffer (40 mM Tris.HCl, pH 7.5, 50 mM NaCl, 1 mM DTT (dithiothreitol) and 0.05% Pluronic F-127). After incubation of test compound and terbium chelate-labeled menin for 30 min at ambient temperature, 4 μL 2× FITC-MBM1 peptide (FITC-β-alanine-SARWRFPARPGT-NH2 (SEQ ID NO: 3)) (“FITC” means fluorescein isothiocyanate) in assay buffer was added, the microtiter plate centrifuged at 1000 rpm for 1 min and the assay mixtures incubated for 15 min at ambient temperature. The relative amount of menin FITC-MBM1 complex present in an assay mixture is determined by measuring the homogenous time-resolved fluorescence (HTRF) of the terbium/FITC donor/acceptor fluorophore pair using an EnVision microplate reader (ex. 337 nm/terbium em. 490 nm/FITC em. 520 nm) at ambient temperature. The degree of fluorescence resonance energy transfer (the HTRF value) is expressed as the ratio of the fluorescence emission intensities of the FITC and terbium fluorophores (F^em 520 nm/F^em 490 nm). The final concentrations of reagents in the binding assay are 200 pM terbium chelate-labeled menin, 75 nM FITC-MBM1 peptide and 0.5% DMSO in assay buffer. Dose-response titrations of test compounds are conducted using an 11 point, four-fold serial dilution scheme, starting typically at 10 μM.
Compound potencies were determined by first calculating % inhibition at each compound concentration according to equation 1:
% inhibition=((HC−LC)−(HTRF^compound−LC))/(HC−LC))*100 (Eqn 1)
Where LC and HC are the HTRF values of the assay in the presence or absence of a saturating concentration of a compound that competes with FITC-MBM1 for binding to menin, and HTRF^compound is the measured HTRF value in the presence of the test compound. HC and LC HTRF values represent an average of at least 10 replicates per plate.
% inhibition=Bottom+(Top−Bottom)/(1+10^((logIC50−log[cmpd])*h)) (Eqn 2)
Where Bottom and Top are the lower and upper asymptotes of the dose-response curve, respectively, IC50 is the concentration of compound that yields 50% inhibition of signal and h is the Hill coefficient. IC50 values below 0.1 nM in the HTRF assay were reported as 0.1 nM in the Table below (detection limit).
Preparation of Terbium cryptate labeling of Menin: Menin (a.a 1-610-6xhis tag (“6xhis tag” disclosed as SEQ ID NO: 2), 2.3 mg/mL in 20 mM Hepes (2-[4-(2-Hydroxyethyl)-1-piperazinyl]ethane sulfonic acid), 80 mM NaCl, 5 mM DTT (Dithiothreitol), pH 7.5) was labeled with terbium cryptate as follows. 200 μg of Menin was buffer exchanged into 1× Hepes buffer. 6.67 μM Menin was incubated with 8-fold molar excess NHS (N-hydroxysuccinimide)-terbium cryptate for 40 minutes at room temperature. Half of the labeled protein was purified away from free label by running the reaction over a NAP5 column with elution buffer (0.1 M Hepes, pH 7+0.1% BSA (bovine serum albumin)). The other half was eluted with 0.1 M phosphate buffered saline (PBS), pH7. 400 μl of eluent was collected for each, aliquoted and frozen at −80° C. The final concentration of terbium-labeled Menin protein was 115 μg/mL in Hepes buffer and 85 μg/mL in PBS buffer, respectively.

[2] = system: MOLM14 cells; assay: Proliferation assay, spheroid-like growth, MOLM14 (MLL-AF9 rearranged); conditions: read-out: spheroid assay_OneTime MOLM14 IC50, 8 days, confluence as measure of spheroid size
Experimental: (§1) The anti-proliferative effect of menin/MLL protein/protein interaction inhibitor test compounds was assessed in human leukemia cell lines. The cell line MOLM14 harbors a MLL translocation and expresses the MLL fusion proteins MLL-AF9, respectively, as well as the wildtype protein from the second allele. […] KO-52 was used as a control cell line containing two MLL (KMT2A) wildtype alleles in order to exclude compounds that display general cytotoxic effects.
MOLM14 cells were cultured in RPMI-1640 (Sigma Aldrich) supplemented with 10% heat-inactivated fetal bovine serum (HyClone), 2 mM L-glutamine (Sigma Aldrich) and 50 μg/ml gentamycin (Gibco). KO-52 cell lines were propagated in alpha-MEM (Sigma Aldrich) supplemented with 20% heat-inactivated fetal bovine serum (HyClone), 2 mM L-glutamine (Sigma Aldrich) and 50 μg/ml gentamycin (Gibco).
In order to assess the anti-proliferative effects, 200 MOLM14 cells, or 300 KO-52 cells were seeded in 200 μl media per well in 96-well round bottom, ultra-low attachment plates (Costar, catalogue number 7007). Cell seeding numbers were chosen based on growth curves to ensure linear growth throughout the experiment. Test compounds were added at different concentrations and the DMSO content was normalized to 0.3%. Cells were incubated for 8 days at 37° C. and 5% CO2. Spheroid like growth was measured in real-time by live-cell imaging (IncuCyteZOOM, Essenbio, 4× objective) acquiring images at day 8. Confluence (%) as a measure of spheroid size was determined using an integrated analysis tool.
In order to determine the effect of the test compounds over time, the confluence in each well as a measure of spheroid size, was calculated. Confluence of the highest dose of a reference compound was used as baseline for the LC (Low control) and the confluence of DMSO treated cells was used as 0% cytotoxicity (High Control, HC).
Absolute IC50 values were calculated as percent change in confluence as follows:
LC=Low Control: cells treated with e.g. 1 μM of the cytotoxic agent staurosporin, or e.g. cells treated with a high concentration of an alternative reference compound
GraphPad Prism (version 7.00) was used to calculate the IC50. Dose-response equation was used for the plot of % Effect vs Log 10 compound concentration with a variable slope and fixing the maximum to 100% and the minimum to 0%.

[3] = system: KO-52 cells; assay: Proliferation assay, spheroid-like growth, KO-52 (MLL wildtype control cell line); conditions: read-out: spheroid assay_OneTime KO-52 IC50; KO-52 control cells, 8 days, confluence as measure of spheroid size
Experimental: as §1
MOLM14 cells were cultured in RPMI-1640 (Sigma Aldrich) supplemented with 10% heat-inactivated fetal bovine serum (HyClone), 2 mM L-glutamine (Sigma Aldrich) and 50 μg/ml gentamycin (Gibco). […]
In order to assess the anti-proliferative effects, 200 MOLM14 cells, or 300 KO-52 cells were seeded in 200 μl media per well in 96-well round bottom, ultra-low attachment plates (Costar, catalogue number 7007). […] Spheroid like growth was measured in real-time by live-cell imaging (IncuCyteZOOM, Essenbio, 4× objective) acquiring images at day 8. Confluence (%) as a measure of spheroid size was determined using an integrated analysis tool.
In order to determine the effect of the test compounds over time, the confluence in each well as a measure of spheroid size, was calculated. […]
Absolute IC50 values were calculated as percent change in confluence as follows: […]

| Structure (SMILES) | pIC50 [1] | pIC50 [2] | pIC50 [3] |
| --- | --- | --- | --- |
| Cc1cc(C2CC2)c(-c2cc(F)ccc2Oc2nncnc2N2CCC3(C2)CN([C@@H](C(C)C)[C@H]2C[C@@H](N4C[C@@H]5[C@H](C4)[C@H]5C(=O)N(C)C)C2)C3)nn1 | 9.59 | 7.68 |  |
| CC(=O)Nc1cccc(N[C@H]2C[C@@H]([C@@H](C(C)C)N3CC4(CCN(c5ncnnc5Oc5ccc(F)cc5-c5cncnc5C5CC5)C4)C3)C2)n1 | 9.85 | 8.10 |  |
| C[C@H]([C@H]1C[C@@H](N)C1)N1CC2(CCN(c3ncnnc3Oc3ccc(F)cc3-c3cncnc3C3CC3)C2)C1 | 7.86 |  |  |
| CC(C)[C@@H]([C@H]1C[C@]2(CCC(=O)N2)C1)N1CC2(CCN(c3ncnnc3Oc3ccc(F)cc3-c3cncnc3C3CC3)C2)C1 | 9.70 | 6.92 | 5.23 |
| CC(C)[C@H]([C@H]1C[C@@H](Nc2ccnc(NS(C)(=O)=O)c2)C1)N1CC2(CCN(c3ncnnc3Oc3ccc(F)cc3-c3cncnc3C3CC3)C2)C1 | 9.89 | 6.89 |  |

pIC50: −log10 of the molar value.
